In US20070134261A1, “Effectors of innate immunity” (priority 2001, published 2007):

Legend:
whole human blood = assay: E. coli LPS induced IL-8 in whole human blood (ELISA); assay type: cell-based
human PBMCs = assay: IL-6 and MCP-3 release from human PBMCs (ELISA, Example 15); assay type: cell-based; conditions: pre-incubation with inhibitor

Row | Compound | LPS-induced production of IL-8 (whole human blood) | MCP-3 production from combined LL-37 and IL-1β (human PBMCs)
1 | CC[C@H](C)[C@H](N)C(=O)N[C@@H](CC(C)C)C(=O)N1CCC[C@H]1C(=O)N[C@@H](Cc1c[nH]c2ccccc12)C(=O)N[C@@H](CCCCN)C(=O)N[C@@H](Cc1c[nH]c2ccccc12)C(=O)N1CCC[C@H]1C(=O)N[C@@H](Cc1c[nH]c2ccccc12)C(=O)N[C@@H](Cc1c[nH]c2ccccc12)C(=O)N1CCC[C@H]1C(=O)N[C@@H](Cc1c[nH]c2ccccc12)C(=O)N[C@@H](CCCNC(=N)N)C(=O)N[C@@H](CCCNC(=N)N)C(N)=O [SEQ ID NO: 2] | inhibited | 
2 | oxidised ATP |  | partially blocked
